From patent publication US10179123B2, “2-aryl- and 2-arylalkyl-benzimidazoles as mIDH1 inhibitors” (BAYER PHARMA AKTIENGESELLSCHAFT, priority 2015, dated 2019) come the findings set out here.

Sequences of proteins named here, by UniProt entry; tags and fusion partners are left off.
UniProt O75874, whole entry R132H: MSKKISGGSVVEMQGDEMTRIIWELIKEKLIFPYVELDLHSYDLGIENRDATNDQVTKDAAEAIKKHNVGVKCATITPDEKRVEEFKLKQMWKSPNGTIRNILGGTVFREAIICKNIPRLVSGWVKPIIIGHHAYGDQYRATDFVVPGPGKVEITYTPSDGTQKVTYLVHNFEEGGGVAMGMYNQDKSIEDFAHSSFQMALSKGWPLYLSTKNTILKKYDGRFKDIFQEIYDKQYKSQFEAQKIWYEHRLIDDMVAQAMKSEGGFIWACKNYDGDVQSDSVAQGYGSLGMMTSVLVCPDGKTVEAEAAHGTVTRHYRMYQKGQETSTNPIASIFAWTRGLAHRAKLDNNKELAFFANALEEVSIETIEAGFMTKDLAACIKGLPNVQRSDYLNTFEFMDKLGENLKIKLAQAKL

One test addresses IDH1 R132H enzyme (Homo sapiens (Human), UniProt O75874, R132H). Put plainly: Mutant IDH1 R132H biochemical assay. To be noted: NADPH consumption, luminescent readout; 1.5 nM enzyme, 1 μM NADPH, 250 μM α-KG, 30 minutes, 32° C. How it is done: Mutant IDH1 R132H Biochemical Assay […] NADPH consumption was measured by luminescent readout. […] The IDH1 R132H enzyme was used in a final concentration of 1.5 nM. […] The final DMSO concentration was 2.4%. […] Luminescence was measured on a luminescent reader (10 seconds measuring time, 1 second integration period, 30% sensitivity). The decrease in luminescence is proportional to mIDH1 activity. IC50 values are determined by interpolation from plots of relative luminescence versus inhibitor concentration.

The target of test [1] is mutated isocitrate dehydrogenase (mIDH) protein, LN229 R132H cells (Homo sapiens (Human), UniProt O75874, R132H). Kind of test: Mutant IDH1 cellular assay (2-HG in medium of LN229 R132H cells). The following applies: 2-HG levels in medium, 24 hours. It is filed as cell-based. How it is done: Mutant IDH1 Cellular Assay
Levels of (2R)-2-hydroxyglutarate (2HG) were measured in medium of a cell line with overexpression of mutated isocitrate dehydrogenase (mIDH) protein. mIDH catalyzes the NADPH-dependent reduction of alpha-ketoglutarate to 2-HG. Cells (LN229 R132H, Mohrenz et al., Apoptosis (2013) 18:1416-1425) were grown in DMEM containing 10% FCS. They were harvested by trypsin and seeded into 96-well plates. Cells were incubated overnight at 37° C. in 5% CO2. The next day test compounds were added to each cell well. The final concentration of DMSO was 0.1% and DMSO controls were included. The plates were then placed in an incubator for 24 hours.
2-HG was measured according to Balss et al. (Acta Neuropathol (2012) 124: 883-891). Briefly, HClO4 was added to each well and the plates were centrifuged. Aliquots are removed and incubated with hydroxyglutarate dehydrogenase (HGDH), diaphorase, NAD+, and resazurin. The conversion of resazurin to resorufin was detected by fluorescence spectroscopy at Ex 540 nm Em 600 nm. The increase in fluorescence is proportional to 2-HG production. IC50 values are determined by interpolation from plots of relative fluorescence vs inhibitor concentration.

One may read the IC50 as the point on the concentration scale where inhibition reaches its midpoint. Read a low IC50 as higher potency. Take `COC(=O)CCc1cc2nc(Cc3ccc(OC(F)(F)F)cc3)n([C@H]3C[C@@H](C)CC(C)(C)C3)c2cc1OC` (racemic) [Example 2-28, (±) methyl 3-{6-methoxy-2-[4-(trifluoromethoxy)benzyl]-1-[(cis)-3,3,5-trimethylcyclohexyl]-1H-benzimidazol-5-yl}propanoate]: the results for the half-inhibitory concentration (IC50) (on IDH1 R132H enzyme; in test [1]) were 180 nM and 1100 nM, respectively.
